Experiments:
[1] = molecular target: p21-binding domain of PAK-1 fused to agarose beads (GST-Pak1-Rac/Cdc42-binding domain), as used in the Rac1 activation kit (UniProt Q13153); assay: PAK-1 p21-binding domain (PAK-PKB) pull-down from cell lysate, blot with anti-syndecan-4 or anti-GFP
[2] = molecular target: Tiam-1, Rac1-specific guanine nucleotide exchange factor (RacGEF) (UniProt Q13009); assay: cell-based or functional assay

The chains behind the UniProt entries cited, without tags or fusion partners. Residues count along the entry.
UniProt Q13153, 67-150 limits assumed: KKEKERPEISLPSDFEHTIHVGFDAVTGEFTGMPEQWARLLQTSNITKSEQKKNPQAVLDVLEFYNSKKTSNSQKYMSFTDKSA
UniProt Q13009, 2-1591 limits assumed: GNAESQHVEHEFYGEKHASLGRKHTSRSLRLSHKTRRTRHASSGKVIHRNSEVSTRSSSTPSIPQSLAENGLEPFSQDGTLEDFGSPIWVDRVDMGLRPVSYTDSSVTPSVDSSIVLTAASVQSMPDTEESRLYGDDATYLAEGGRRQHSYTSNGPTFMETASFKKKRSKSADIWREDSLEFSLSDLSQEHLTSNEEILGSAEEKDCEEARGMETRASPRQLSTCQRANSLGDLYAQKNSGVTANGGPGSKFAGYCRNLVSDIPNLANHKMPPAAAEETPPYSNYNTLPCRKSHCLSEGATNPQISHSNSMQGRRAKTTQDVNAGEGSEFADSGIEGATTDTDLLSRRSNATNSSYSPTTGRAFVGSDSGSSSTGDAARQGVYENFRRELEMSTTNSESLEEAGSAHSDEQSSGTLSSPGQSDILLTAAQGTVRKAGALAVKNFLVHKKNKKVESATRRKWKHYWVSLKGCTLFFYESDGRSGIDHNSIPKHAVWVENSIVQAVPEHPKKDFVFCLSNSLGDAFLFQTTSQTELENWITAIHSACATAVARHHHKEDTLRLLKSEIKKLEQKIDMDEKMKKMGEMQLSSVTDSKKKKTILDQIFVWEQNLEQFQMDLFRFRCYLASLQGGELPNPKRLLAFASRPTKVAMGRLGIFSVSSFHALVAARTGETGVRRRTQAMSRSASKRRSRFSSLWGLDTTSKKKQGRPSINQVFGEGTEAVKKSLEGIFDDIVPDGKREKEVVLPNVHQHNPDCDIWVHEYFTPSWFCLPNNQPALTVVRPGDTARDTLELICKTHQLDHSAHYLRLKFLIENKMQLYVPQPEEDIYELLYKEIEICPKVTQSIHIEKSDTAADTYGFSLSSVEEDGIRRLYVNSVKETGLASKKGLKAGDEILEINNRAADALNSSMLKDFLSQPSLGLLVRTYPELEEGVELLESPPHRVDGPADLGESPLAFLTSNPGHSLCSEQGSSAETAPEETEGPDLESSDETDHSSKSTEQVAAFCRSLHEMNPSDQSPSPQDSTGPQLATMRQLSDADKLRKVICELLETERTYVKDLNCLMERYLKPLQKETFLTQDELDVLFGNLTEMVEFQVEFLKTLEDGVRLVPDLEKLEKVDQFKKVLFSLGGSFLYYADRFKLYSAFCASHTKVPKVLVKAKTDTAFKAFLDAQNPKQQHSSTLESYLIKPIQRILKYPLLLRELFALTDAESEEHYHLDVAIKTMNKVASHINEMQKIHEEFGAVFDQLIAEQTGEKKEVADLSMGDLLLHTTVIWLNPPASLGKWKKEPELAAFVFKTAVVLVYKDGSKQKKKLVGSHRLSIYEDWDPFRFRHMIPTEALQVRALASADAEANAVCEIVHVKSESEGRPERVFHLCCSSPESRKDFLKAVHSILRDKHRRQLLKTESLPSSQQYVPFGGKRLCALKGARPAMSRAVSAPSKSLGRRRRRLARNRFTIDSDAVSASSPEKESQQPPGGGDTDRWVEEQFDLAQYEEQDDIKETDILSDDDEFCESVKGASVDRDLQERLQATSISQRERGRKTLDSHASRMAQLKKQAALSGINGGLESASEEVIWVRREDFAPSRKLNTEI

Row | amount of pulled-down syndecan-4 against wt-syndecan-4 (% more than wt-syndecan-4) [1] | relative Rac1-GTP level (nt, not treated) (relative to wt-syndecan-4 line) [2] | Rac1-GTP level (fold decrease) [2] | Substance
1 | 20 | 1.9 |  | Ser179Ala syndecan-4 (GFP chimera, phosphodefective mutant) (from UniProt P31431 19-198; P42212 1-238)
2 |  | 0.6 | 1.5 | Ser179Glu syndecan-4 (GFP chimera, phospho-mimetic mutant) (from UniProt P31431 19-198; P42212 1-238)
